Assay results published in ChEMBL document CHEMBL4699469, “Recent Developments in the Biology and Medicinal Chemistry of CDK9 Inhibitors: An Update” (J Med Chem, 2020).

By UniProt entry, the sequences of proteins in these tests, tags left out.
UniProt P50750, whole entry: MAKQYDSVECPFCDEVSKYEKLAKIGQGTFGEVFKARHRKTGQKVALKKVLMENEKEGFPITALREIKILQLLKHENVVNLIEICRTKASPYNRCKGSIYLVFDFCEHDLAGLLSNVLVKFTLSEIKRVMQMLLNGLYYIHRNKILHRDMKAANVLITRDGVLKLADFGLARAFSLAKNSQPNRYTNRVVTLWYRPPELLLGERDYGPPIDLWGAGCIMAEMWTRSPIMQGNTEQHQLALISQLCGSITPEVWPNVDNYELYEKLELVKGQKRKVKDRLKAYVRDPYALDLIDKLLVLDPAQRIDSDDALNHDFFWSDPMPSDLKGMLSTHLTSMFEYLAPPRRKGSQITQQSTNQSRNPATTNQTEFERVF

Target: Cyclin-dependent kinase 9 (Homo sapiens, UniProt P50750)
Assay: Inhibition of human CDK9

Compound: CN1C/C=C/CCOc2cccc(c2)-c2ccnc(n2)Nc2cccc(c2)C1 [ZOTIRACICLIB]
- IC50: 2 nM
